# Measured affinities in a library of Ab-14 light chain variants

Reference: Li et al. 2023, doi:10.1038/s41467-023-39022-2. File: FLAb, binding data.

Antigen: PDVDLGDISGINAS, a 14-residue peptide of the SARS-CoV-2 spike HR2 region.

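The parent was found by panning a naive human phage display library on the peptide. The variants were designed computationally from a first round of random CDR variants and then made and measured. Group labels follow the data file (Ctrl: baseline library sampled from a position-specific scoring matrix, with some repeated check sequences; En: ensemble of fine-tuned language models; GP: Gaussian process model; HC: hill climbing; Gen: genetic algorithm; Gibbs: Gibbs sampling; a sequence that several methods proposed may carry one label only). Affinity was read by AlphaSeq, a pooled yeast mating assay with surface-displayed partners. Mating (16 h, 30 °C) was followed by selection of diploids and sequencing of their barcodes. A regression on co-assayed BCL2-family reference pairs converts the normalised counts of each replicate to an apparent Kd. The assay was run in six technical replicates.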

Parent: Ab-14, a human scFv built as VH, three GGGGS repeats, VL. Only the CDRs of the light chain vary.
VH: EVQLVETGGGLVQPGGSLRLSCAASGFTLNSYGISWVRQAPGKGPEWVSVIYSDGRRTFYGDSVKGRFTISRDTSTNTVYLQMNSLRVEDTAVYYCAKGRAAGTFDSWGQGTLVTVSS
VL: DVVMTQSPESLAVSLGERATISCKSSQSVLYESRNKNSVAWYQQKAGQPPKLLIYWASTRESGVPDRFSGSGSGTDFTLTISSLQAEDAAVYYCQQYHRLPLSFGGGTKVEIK

Variants are written as CDR1, CDR2 and CDR3 of the light chain (limits as in the source). Parent: KSSQSVLYESRNKNSVA, WASTRES, QQYHRLPLS. Kd is apparent (estimated from mating counts) and averaged on the log scale over replicates with a signal. Smaller is tighter. An entry "not detected" has no value in the source: the pair was not observed among the diploids in any replicate. This suggests poor binding but is not conclusive. A sequence that the file lists under several names has all its replicates pooled. The range of this assay differs from that of the first round, and the authors advise against merging the two. Background: pairings of all light chain designs with three empty control strains gave a value in 4% of cases (median 430 nM, 5th percentile 38 nM). Values in that range, when seen in few replicates, are hard to tell from nonspecific mating. The authors averaged sequences with at least three values out of six and counted those with two or fewer as poor binders.

Kd (apparent) | seen in | CDR-L1 | CDR-L2 | CDR-L3 | group
810 pM | 6/6 | KLSQSVLYESRNKNNVA | NASTRMS | QQYHRLPLS | GP_Gen
470 pM | 6/6 | KSSQSWDYESRNKNSVA | GASTRES | QQYHRLPLS | GP_HC
6.1 nM | 6/6 | KVSESAAFLSRNRNSVA | DNSTRGS | QQYHRLPLS | En_HC
1.1 nM | 6/6 | KIGMTLNTLLHQKNNVA | DLVNREN | QQYFRLPLS | En_Gen
9.4 nM | 6/6 | KSSGSWLYESRNKNSVA | GASAREV | QQYHRLPLS | GP_HC
1.8 nM | 6/6 | FLLQSVLYESRNFNSVA | HASTRED | QQYHRLPLS | GP_HC
not detected | 0/6 | VFSGLFQGDEQSYNSVA | EASLSNT | QQYISLPLS | En_Gibbs
not detected | 0/6 | KLSMSYRMETEEKNSIA | ELVTRMS | QQYHRLPLS | En_HC
2.9 nM | 6/6 | KSSQSVLNESRNKNSVA | GASTRED | QQYHRLPLS | Ctrl
not detected | 0/6 | QLELVQNGDTISEYSVA | HAEVSGR | QQYSQLPLI | En_Gibbs
860 pM | 6/6 | KLENSNLYESRNKNSVA | NASTRYS | QQYHRLPLS | GP_Gibbs
30 nM | 4/6 | KISQSVLGEQRAQNSVA | EASTRES | QQYHRLPLS | GP_Gibbs
10 nM | 6/6 | MMSQVTGQGTRHRNNVA | QTSTREP | QQYDHLPLI | En_Gen
2.6 nM | 6/6 | KLYQSVGYESRNKNSVA | NASTRES | QQYHRLPLS | GP_Gen
47 nM | 1/6 | RLTQQMYGFNIHANAIA | SGAERQW | QQYARLPLS | En_Gibbs
1.1 nM | 6/6 | KSSESYLYESRNKNSVA | EASTRES | QQYHRLPLM | GP_HC
2.9 nM | 6/6 | KIGMTLDQLMHKKNNVA | DLVVREN | QQYHRLPLS | En_Gen
9.7 nM | 6/6 | MFSQLVYTGSHTRNAVA | QASTREN | QQYHHLPLS | En_HC
250 pM | 6/6 | HFSPSTLYESRNKNSVA | NASTRES | QQYHRLPLS | GP_HC
430 pM | 6/6 | HLSQSVLYESRNKNSVA | NASTREE | QQYHRLPLS | GP_Gen
600 pM | 6/6 | KLQQSQLYESRNKNSVA | DASTRLS | QQYHRLPLS | GP_Gen
1.1 nM | 6/6 | KLSQSYGYESTNSNSVA | DASTRES | QQYHRLPLS | GP_Gibbs
1.7 nM | 6/6 | KISMSYRYESQSKNSIA | EMSRREN | QQYHRLPLS | En_HC
37 nM | 4/6 | KSSQSVLYESRMKNSVA | WASTRES | QQYFRLPLS | Ctrl
11 nM | 6/6 | KSSQSVLYQSRNNNSVA | SASTRES | QQYHRLPLS | Ctrl
320 pM | 6/6 | KLSQMMLYESRNANSVA | NASTREE | QQYHRLPLS | GP_Gibbs
2.9 nM | 6/6 | KLMQSVLYESRNKNSVA | GASQRES | QQYHRLPLS | GP_Gen
2.8 nM | 6/6 | QISMLLNFESYKVNNVA | QMETRVN | QQYDRLPLS | En_Gen
13 nM | 6/6 | MMGMTVENQSNMIQNVA | DMNERFA | QQYFQLPLS | En_Gibbs
140 nM | 2/6 | KSSQSVLYESRNKNSVA | WASTREF | QQYFRLPLS | Ctrl
350 pM | 6/6 | KVSQSMLYESRNKNNVA | EASTREQ | QSYHRLPLS | GP_Gibbs
1.4 nM | 6/6 | KSSQSVPYESRNKNSVA | DASTRES | QQYHRLPLS | GP_Gen
not detected | 0/6 | IVSQLMLWGWHAKNSIA | EAQTRVN | QQYDRLPLM | En_Gen
140 nM | 6/6 | KLSQSVNMTGKNKNSVA | ELSFREE | QQYERLPLS | En_HC
1.5 nM | 6/6 | KLVQSELYESRQSNSVA | NASYREE | QQYHRLPLS | GP_Gibbs
130 nM | 6/6 | KLSMSMVLESFHKNSVA | ENSTREE | QHYHRLPLS | En_HC
4.4 nM | 6/6 | TISTSMRYESSLKNAIA | NAETRES | QQYHRLPIS | En_HC
750 pM | 6/6 | HLSQSTDLESVHKNSIA | DLMTREE | QQYHRLPLS | En_HC
530 pM | 6/6 | KLPQSMLYESRNKNSVA | QASTREE | QQYHRLPLT | GP_Gibbs
9.3 nM | 6/6 | SISMSMAFLSRNKNSVA | ENSTREE | QQYHRLPLL | En_HC
970 pM | 6/6 | KQSFSVLQESRNKNSVA | DASTRES | QQYHRLPLS | GP_HC
16 nM | 6/6 | HLSAMWGLESVKHNNVA | ENNTREQ | QQYDRLPLS | En_Gen
150 nM | 4/6 | KLRMLTLTGGYFKNSVA | QASTRLN | QSYHRLPLS | En_HC
2.0 nM | 6/6 | MMSYGWLYGSRNKRNVA | DRETREH | QQYDRLPLS | En_HC
13 nM | 6/6 | HINDMLFGSTKIAHSIA | NTGVTSR | QQYSRLPLI | En_Gibbs
not detected | 0/6 | KSSESVLYESRNKGSVA | WDSTRES | QQKHRLPLS | Ctrl
1.2 nM | 6/6 | KMSQSVDPLDRNKNSVA | NASTREM | QQYHRLPLS | GP_Gibbs
510 pM | 6/6 | KLSMVTGHLSMAKNNVA | EMVTREN | QQYNRLPLA | En_Gen
510 pM | 6/6 | KLSQSVWYLERNKNSVA | NASTRES | QQYHRLPLS | GP_Gibbs
1.4 nM | 6/6 | KVMQSVLGLQRAKNSVA | EASTRES | QQYHRLPLS | GP_Gibbs
2.4 nM | 6/6 | KVSQSVLYESRTKNSVA | NASTRES | QQVHRLPLS | GP_HC
1.4 nM | 12/12 | KLSQSVLYESRNKNSVA | HASTRES | QQYHRLPLS | Ctrl+GP_Gen
1.3 nM | 6/6 | KLSQSVLYESRNKNSVA | NASTRCK | QQYHRLPLS | GP_Gen
740 pM | 6/6 | KLSQSVLGESRNKNSVA | NASTREQ | QQYHRLPLS | GP_Gen
2.1 nM | 6/6 | TIGPMLMTESHNKNSVA | GMQTRER | QQYHRLPLS | En_HC

The opening 8 entries, copied out:

CDR-L1 | CDR-L2 | CDR-L3 | group | Kd (apparent) | seen in
KLSQSVLYESRNKNNVA | NASTRMS | QQYHRLPLS | GP_Gen | 810 pM | 6/6
KSSQSWDYESRNKNSVA | GASTRES | QQYHRLPLS | GP_HC | 470 pM | 6/6
KVSESAAFLSRNRNSVA | DNSTRGS | QQYHRLPLS | En_HC | 6.1 nM | 6/6
KIGMTLNTLLHQKNNVA | DLVNREN | QQYFRLPLS | En_Gen | 1.1 nM | 6/6
KSSGSWLYESRNKNSVA | GASAREV | QQYHRLPLS | GP_HC | 9.4 nM | 6/6
FLLQSVLYESRNFNSVA | HASTRED | QQYHRLPLS | GP_HC | 1.8 nM | 6/6
VFSGLFQGDEQSYNSVA | EASLSNT | QQYISLPLS | En_Gibbs | not detected | 0/6
KLSMSYRMETEEKNSIA | ELVTRMS | QQYHRLPLS | En_HC | not detected | 0/6